Literature values in patent publication US20240115547A1, “PSYCHOTROPIC AGENTS AND USES THEREOF” (LB PHARMACEUTICALS INC., priority 2021, published 2024).

By UniProt entry, the sequences of proteins in these tests, tags left out. Residues count along the entry.
UniProt P34969, 1-445 isoform P34969-2: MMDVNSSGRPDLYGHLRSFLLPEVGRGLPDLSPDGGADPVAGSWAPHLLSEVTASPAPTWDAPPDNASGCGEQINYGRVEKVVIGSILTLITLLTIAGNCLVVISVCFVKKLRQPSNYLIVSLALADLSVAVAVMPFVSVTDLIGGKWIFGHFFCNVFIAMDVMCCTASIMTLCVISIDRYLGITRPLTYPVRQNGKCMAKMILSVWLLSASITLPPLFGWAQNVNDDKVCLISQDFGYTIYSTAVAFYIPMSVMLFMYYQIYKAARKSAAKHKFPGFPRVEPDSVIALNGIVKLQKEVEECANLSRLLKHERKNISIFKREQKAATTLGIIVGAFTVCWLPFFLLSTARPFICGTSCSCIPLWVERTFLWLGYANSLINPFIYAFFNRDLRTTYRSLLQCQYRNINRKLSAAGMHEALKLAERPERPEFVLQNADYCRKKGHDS

Biological target: HT7a (Homo sapiens, UniProt P34969)
Details: cited from earlier work

CCN1CCCC1CNC(=O)c1cc(S(=O)(=O)CC)c(N)cc1OC (stereo not shown) [amisulpride, 4-amino-N-(((1-ethyl-2-pyrrolidinyl)methyl)-5-(ethylsulfonyl))-2-methoxybenzamide]
Ki HT7a: low double digit
